Measured values taken from article PMC3853373 (Archives of biochemistry and biophysics, 2013).

Legend:
human PNMT (hPNMT) [1] = target: T1, human PNMT (hPNMT) (Homo sapiens, UniProt P11086); assay: Determination of inhibition constants and inhibition patterns for hPNMT; format: biochemical; details: Kis, pH 8.0, 30 °C
T1 sequence (P11086 1-282): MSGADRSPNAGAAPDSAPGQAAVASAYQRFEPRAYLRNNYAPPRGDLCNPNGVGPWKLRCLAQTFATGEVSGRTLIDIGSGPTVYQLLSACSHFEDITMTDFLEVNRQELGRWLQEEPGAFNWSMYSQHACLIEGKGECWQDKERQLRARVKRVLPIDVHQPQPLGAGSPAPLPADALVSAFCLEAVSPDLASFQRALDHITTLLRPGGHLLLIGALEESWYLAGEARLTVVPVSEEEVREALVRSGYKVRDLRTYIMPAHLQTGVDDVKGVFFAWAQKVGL

human PNMT (hPNMT) [2] = target: T1, human PNMT (hPNMT); assay: Isothermal titration calorimetry of ligand binding to hPNMT; details: Kd (varied ligand), ITC, pH 8.0

SMILES: CNC[C@H](O)c1ccc(O)c(O)c1 [Epinephrine, epinephrine]
- Ki (human PNMT (hPNMT) [1]; varied substrate AdoMet, fixed PEA 100 μM): 71 ± 9.5 µM
- Ki (human PNMT (hPNMT) [1]; varied substrate PEA, fixed AdoMet 5 μM): 20 ± 0.2 µM
- Kd (human PNMT (hPNMT) [2]; fixed ligand AdoHcy): 4.1 ± 0.7 µM
- Kd (human PNMT (hPNMT) [2]; fixed ligand AdoMet): 23 ± 2.5 µM
